The assay addresses oestrogen receptor (ER) (Homo sapiens, UniProt P03372). The experiment in a line: Anti-oestrogenic action in MVLN cells (inhibition of estradiol-induced luciferase). The assay is classed as cell-based. The note with it: read-out: Antioestrogenic action in vitro: MVLN transactivation antagonism IC50, inhibition of estradiol-induced luciferase signal, value of Ex. 44 is a mean value. From the text:
The anti-oestrogenic action of the claimed pharmacological compounds was investigated in so-called MVLN cells in vitro. MVLN cells are derivatives of the hormone-responsive MCF7 breast cancer cells known by a person skilled in the art. These MVLN cells express, along with the functional oestrogen receptor (ER), a reporter construct, which under ER-activation expresses luciferase. Determination of the activity of the induced luciferase permits a direct conclusion on the oestrogen properties of substances. To investigate the anti-oestrogenic properties of the pharmacological compounds, they were investigated in the presence of oestrogen for their potential for inhibiting the luciferase signal induced by estradiol. The claimed pharmacological test substances were investigated in MVLN cells for their anti-oestrogenic potential, as described (see Table 2).

The chains behind the UniProt entries cited, without tags or fusion partners.
UniProt P03372, whole entry: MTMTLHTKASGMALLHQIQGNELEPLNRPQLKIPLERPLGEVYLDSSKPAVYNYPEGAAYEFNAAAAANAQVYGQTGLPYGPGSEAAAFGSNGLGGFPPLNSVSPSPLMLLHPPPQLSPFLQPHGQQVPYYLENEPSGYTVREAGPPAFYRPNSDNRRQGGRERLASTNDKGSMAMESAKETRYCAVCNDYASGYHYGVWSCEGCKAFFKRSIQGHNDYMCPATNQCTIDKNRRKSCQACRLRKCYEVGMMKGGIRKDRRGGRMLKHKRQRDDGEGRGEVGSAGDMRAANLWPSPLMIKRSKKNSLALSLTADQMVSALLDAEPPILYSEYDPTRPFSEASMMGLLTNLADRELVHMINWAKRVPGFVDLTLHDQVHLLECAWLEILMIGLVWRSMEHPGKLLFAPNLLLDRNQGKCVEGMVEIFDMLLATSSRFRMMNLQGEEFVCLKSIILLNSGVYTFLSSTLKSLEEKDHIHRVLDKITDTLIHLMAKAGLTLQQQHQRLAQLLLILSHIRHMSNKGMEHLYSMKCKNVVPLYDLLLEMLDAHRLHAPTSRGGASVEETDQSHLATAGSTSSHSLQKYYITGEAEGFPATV

For `O=S(=O)(CCCN(CCCCCCC1=C(c2ccc(F)c(F)c2)CCCc2cc(O)ccc21)C1CC1)CCCC(F)(F)C(F)(F)F`, the IC50 worked out at 46 nM.

The values are drawn from patent US20130252890A1, “6,7-DIHYDRO-5H-BENZO[7]ANNULENE DERIVATIVES, PROCESS FOR PREPARATION THEREOF, PHARMACEUTICAL PREPARATIONS COMPRISING THEM, AND THE USE THEREOF FOR PRODUCTION OF MEDICAMENTS” (BAYER INTELLECTUAL PROPERTY GMBH, priority 2010, published 2013).
